These are literature values, as cited in patent US8846697B2, “Purine analogs” (The Regents of the University of California, priority 2006, dated 2014).

Chains of the proteins cited; added tags and fusions are not shown. Residues count along the entry.
UniProt Q9NYK1, 27-1049, species assumed: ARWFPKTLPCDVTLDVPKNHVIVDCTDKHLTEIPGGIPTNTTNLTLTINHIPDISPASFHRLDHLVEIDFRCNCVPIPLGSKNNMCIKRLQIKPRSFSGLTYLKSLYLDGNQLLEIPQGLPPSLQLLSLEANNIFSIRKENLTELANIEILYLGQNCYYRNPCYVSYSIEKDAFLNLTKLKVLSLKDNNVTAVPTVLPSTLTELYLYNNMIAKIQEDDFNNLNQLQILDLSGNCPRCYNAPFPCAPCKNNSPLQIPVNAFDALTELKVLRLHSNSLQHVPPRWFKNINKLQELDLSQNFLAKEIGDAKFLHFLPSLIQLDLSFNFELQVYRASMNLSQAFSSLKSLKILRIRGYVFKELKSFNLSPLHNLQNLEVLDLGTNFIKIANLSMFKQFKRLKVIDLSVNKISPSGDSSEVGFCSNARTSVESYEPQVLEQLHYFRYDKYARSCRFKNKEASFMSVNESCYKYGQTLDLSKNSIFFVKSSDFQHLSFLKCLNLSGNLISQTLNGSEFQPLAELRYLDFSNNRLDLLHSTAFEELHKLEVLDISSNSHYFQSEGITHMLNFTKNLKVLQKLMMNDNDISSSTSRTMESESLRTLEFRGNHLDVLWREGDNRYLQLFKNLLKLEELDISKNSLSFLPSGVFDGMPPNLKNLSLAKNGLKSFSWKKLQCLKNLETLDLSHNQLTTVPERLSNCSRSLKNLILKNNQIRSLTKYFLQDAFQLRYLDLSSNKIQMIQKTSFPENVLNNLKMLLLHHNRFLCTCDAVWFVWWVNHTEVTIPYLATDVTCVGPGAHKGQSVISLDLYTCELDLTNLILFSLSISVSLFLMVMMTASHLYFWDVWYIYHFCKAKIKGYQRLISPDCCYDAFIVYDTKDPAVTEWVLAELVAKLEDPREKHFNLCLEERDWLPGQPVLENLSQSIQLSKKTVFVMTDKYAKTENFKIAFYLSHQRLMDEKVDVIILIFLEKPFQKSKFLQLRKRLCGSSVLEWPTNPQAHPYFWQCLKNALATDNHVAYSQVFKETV

The target of this series is TLR7 (Homo sapiens, UniProt Q9NYK1). Conditions: cited from earlier work.

On to 9-benzyl-2-methoxyethoxy-8-oxoadenine, for which the “TLR signalling specificity (in words)” value is “signalling exclusively through TLR7”.
